## Yeast mating assay 2: variants of the scFv Ab-91

From the AlphaSeq antibody data of Engelhart et al. 2022 (doi:10.1038/s41597-022-01779-4), copy in the FLAb collection.

Target: peptide PDVDLGDISGINAS, taken from heptad repeat 2 (HR2) of SARS-CoV-2 spike.

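The starting antibody came from a phage panning campaign against this peptide. In library AAYL51, one, two or three CDR residues were substituted; doubles and triples were drawn at random. In AlphaSeq, yeast of one mating type display the scFv and yeast of the other type display the target. Mating (16 h, 30 °C) was followed by selection of diploids and sequencing of their barcodes. Each replicate has its own calibration line, from reference interactions of the BCL2 family. Mating was done three times.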

The variants keep the light chain, the linker and the frameworks of Ab-91 (scFv order VL, a 15-residue (Gly4Ser)3 linker, VH).
VL: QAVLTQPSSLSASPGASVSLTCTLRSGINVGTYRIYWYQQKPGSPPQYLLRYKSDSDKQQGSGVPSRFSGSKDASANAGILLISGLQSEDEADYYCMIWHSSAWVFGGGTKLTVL
VH: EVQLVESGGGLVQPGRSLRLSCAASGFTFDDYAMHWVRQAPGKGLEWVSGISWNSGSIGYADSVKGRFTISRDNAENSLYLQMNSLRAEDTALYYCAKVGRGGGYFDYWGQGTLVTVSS

Each variant is given by its three heavy chain CDRs, as the data file delimits them; those of the parent are GFTFDDYAMH, GISWNSGSIGYADSVK, VGRGGGYFDY. Numbers give log10(Kd / nM), so 0 is 1 nM and 3 is 1 µM. Smaller is tighter. The mean shown is taken over the replicates in which the pair was detected. An entry "nd" has no value in the source: the pair was not observed among the diploids in that replicate. This suggests poor binding but is not conclusive. Three control strains display no target. For library AAYL51, 21% of the pairings with them gave a signal, with a median of 4.54 and one signal in twenty below 3.26, so weak values seen in few replicates may be background. Also given: how often the same scFv was detected with the empty control strains, with their mean in brackets.

log10 Kd (nM) by replicate | log10 Kd (nM), mean | signal with controls | CDR-H1 | CDR-H2 | CDR-H3
4.69 / 3.43 / 3.49 | 3.87 | 3 of 9 (4.32) | GHTFDQYAMH | GISWNSGSIGYARSVK | VGRGGGYFDY
nd / nd / nd | nd | 1 of 9 (4.33) | GFYFDDYAMH | GISWNSGFIGDADSVK | VGRGGGYFDY
5.24 / 5.01 / 4.90 | 5.05 | 4 of 9 (4.78) | GFTFDDYAMH | GISWNSGSRGYADSQK | VGRGGGTFDY
nd / 3.79 / nd | 3.79 | 0 of 9 | GFTCDDYAMH | GISWNSGSIGYADSVK | VGRGGGYFAY
5.18 / nd / nd | 5.18 | 2 of 9 (5.04) | GFTFDDYAMH | GISWNSGSIGKCDSVK | VGRGGGYFDY
5.48 / 5.01 / 5.30 | 5.27 | 7 of 9 (4.39) | GFTFDDYAMH | GISHNSGSIGYADSVA | VGRGGGYADY
4.59 / nd / nd | 4.59 | 4 of 9 (4.52) | GFTFDDHAMH | GISWNSGSIGYYDSVK | VGRPGGYFDY
nd / nd / nd | nd | 2 of 9 (3.83) | GFTFDDYAMA | GITWNSGSIGYADSSK | VGRGGGYFDY
3.59 / nd / 3.25 | 3.42 | 0 of 9 | GFTFDDYAMH | GIQWNSGSIGYALSVK | IGRGGGYFDY
nd / nd / nd | nd | 0 of 9 | GFTFDDYIMH | GISWNRGSIGYAHSVK | VGRGGGYFDY
nd / nd / nd | nd | 0 of 9 | GFTFDDYAMH | GISWNSGSEGYAESVK | HGRGGGYFDY
nd / 5.60 / 5.07 | 5.34 | 2 of 9 (4.10) | GFTFDDYAMH | GISWNKGWIGYADSVK | VGRPGGYFDY
nd / nd / nd | nd | 1 of 9 (3.12) | GFTFNDYAPH | GISWNFGSIGYADSVK | VGRGGGYFDY
nd / nd / nd | nd | 0 of 9 | GFTFDDYAMH | GIVWNSGSIGYLDSVK | VGRGRGYFDY
1.07 / 1.07 / 0.58 | 0.91 | 1 of 9 (3.45) | GFLFGDYAMH | GISWNSGSIGYADSVY | VGRGGGYFDY
nd / nd / nd | nd | 1 of 9 (3.93) | GFTFWDYAMH | GISWNSGSIGYADSVK | VGRGGCYFSY
nd / nd / nd | nd | 0 of 9 | GFTFDDYAMH | GCSWNSGSQYYADSVK | VGRGGGYFDY
nd / nd / 4.16 | 4.16 | 1 of 9 (4.26) | GFYFDDYAMH | GIVWNSGSIGYADSVK | VGLGGGYFDY
5.69 / nd / nd | 5.69 | 1 of 9 (3.88) | GFTFDDYAMH | GISWYSGSIGYADSVK | VGRGGSYADY
nd / 4.34 / 4.77 | 4.55 | 8 of 9 (5.13) | GFTFDDPAMH | GISWNSGSIGYADSVK | VGRGGGFFRY
nd / nd / nd | nd | 1 of 9 (3.89) | GFTFDDVAMH | GISWNSGSIGYADSVK | VGQGGGYIDY
1.11 / nd / nd | 1.11 | 0 of 9 | GFTFDDYAMH | GISWNSASKGYADSVK | VGRGGGYKDY
3.58 / nd / nd | 3.58 | 1 of 9 (3.15) | GFTFDDYFMH | MISWNSGSMGYADSVK | VGRGGGYFDY
nd / nd / nd | nd | 1 of 9 (3.85) | GFTFDDPWMH | GISWNSKSIGYADSVK | VGRGGGYFDY
nd / nd / nd | nd | 0 of 9 | GFVFDDYAMH | GISWNSGSIGYAHSVK | VGIGGGYFDY
0.90 / 0.88 / 0.31 | 0.69 | 8 of 9 (4.94) | GFTFDDYAMH | GISWNSVSIGYADIVK | VGRGGAYFDY
nd / nd / nd | nd | 2 of 9 (4.46) | GFTFDDYAEH | GISQNSGSIGYADSVK | VGRGGGMFDY
nd / nd / nd | nd | 0 of 9 | GFTFDDYAMH | GISWNSGSIWYADSVS | VGRGGGYFDY
1.24 / 1.28 / 0.62 | 1.05 | 0 of 9 | GFTFDDYSFH | GISWNSGSIGYADSVK | VGRGGGYFDY
nd / nd / nd | nd | 3 of 9 (4.01) | GFTFDDYAMH | GISWNSGSDGYADSVK | HGRVGGYFDY
4.08 / nd / nd | 4.08 | 0 of 9 | GFTFQDYAMH | GISVNSGSIGYADSVK | VGRDGGYFDY
5.34 / 5.53 / 5.50 | 5.46 | 7 of 9 (4.95) | GFTFDDYAMH | GISWNSGSIGYADSSK | TGRGGGAFDY
nd / nd / nd | nd | 1 of 9 (4.60) | GFTFDDYAMH | GISWNSGSIGYADVDK | VGRGGGYVDY
4.16 / 4.29 / 4.94 | 4.46 | 6 of 9 (4.69) | GFTFDDYAMH | GISWNPGSIGYADVVH | VGRGGGYFDY
nd / nd / nd | nd | 0 of 9 | GFTFDDYAMH | GISWNSTSIGYADSVK | VGRGGHYFDY
nd / nd / nd | nd | 0 of 9 | GFTFDDYIMN | GISWNIGSIGYADSVK | VGRGGGYFDY
5.37 / nd / nd | 5.37 | 4 of 9 (5.17) | GFTFDDYAMH | GQSWNSGSIGYADSVK | VGRGGGYFAT
4.36 / 5.22 / 4.85 | 4.81 | 1 of 9 (4.65) | GFTFDDYAPH | GISWNSGSISYADSVK | VGRGGGYFDG
nd / nd / nd | nd | 1 of 9 (2.64) | GCTFEDYAMH | GISWNSGSIGYADSAK | VGRGGGYFDY
nd / 5.19 / 3.76 | 4.47 | 2 of 9 (4.18) | GFTFDDYAMH | GMSWNSGSIGLADSVK | VGRGGGMFDY
nd / nd / nd | nd | 2 of 9 (4.65) | GFTFDDYAMH | GNSWNSGSIGYADSVK | VGQGGGLFDY
nd / 2.85 / nd | 2.85 | 0 of 9 | GFTFDNYAMH | GISWNSGSIGYADSVK | VGRLGGCFDY
nd / nd / nd | nd | 1 of 9 (5.44) | GFTFDWYAMH | GISWNPGSIGYADSVK | VGRGGGYFRY
5.39 / 5.30 / 4.95 | 5.22 | 2 of 9 (4.77) | GFTFDYYAMH | GISWNSGSIGYADSVK | VGRGGGYGLY
nd / nd / nd | nd | 0 of 9 | GYTTDDYAMH | GISWNSGSAGYADSVK | VGRGGGYFDY
nd / nd / nd | nd | 4 of 9 (4.27) | GFTFDDYVMH | GISFNSGSIGYADSVK | VGCGGGYFDY
4.94 / 4.24 / 4.99 | 4.72 | 3 of 9 (5.16) | GFTFDPYAMH | GISWNSGSIGYADSVK | HMRGGGYFDY
4.28 / 5.25 / nd | 4.77 | 4 of 9 (4.94) | GFTFDDYAMH | AISWVSGSIGWADSVK | VGRGGGYFDY
2.45 / nd / 1.81 | 2.13 | 0 of 9 | GFTFDDYAMH | GISWNSGSNGYADSVK | VARGGGYFDY
nd / nd / 3.71 | 3.71 | 0 of 9 | GFTFFDYAMH | GISWNSGWIGYADWVK | VGRGGGYFDY

Parent in this assay: reference entry 1.86, copy in this library 0.88.